Laboratory results: US20260242729A1

By UniProt entry, the sequences of proteins in these tests, tags left out. Residues count along the entry.
UniProt P07766, 23-207: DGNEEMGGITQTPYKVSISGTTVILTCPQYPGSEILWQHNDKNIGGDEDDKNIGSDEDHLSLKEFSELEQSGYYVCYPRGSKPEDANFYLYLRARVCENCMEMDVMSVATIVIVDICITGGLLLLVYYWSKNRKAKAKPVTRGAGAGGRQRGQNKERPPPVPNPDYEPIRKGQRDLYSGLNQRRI

Target: CD3 on the surface of Jurkat cells, PBMCs and T cells (human) (UniProt P07766)
Experiment: flow cytometry; after Fab-multimer staining, D-biotin and washing, remaining OKT3 Fab monomers on the cells were detected with fresh PE-labeled Strep-Tactin; live (PI-negative) cells; second dot plot from the right

In the case of “αCD3 Fab fragment derived from the monoclonal antibody OKT3, heavy chain C-terminally fused to Twin-Strep-tag (monomeric Fab)”, the percentage of cells within gate is reported as 0.018%.
